Results as given in patent US6395913B1, “Recovery and purification of 3,4-epoxy-1-butene” (Eastman Chemical Company, priority 2001, dated 2002).

Experiment: Extraction affinity of water-immiscible solvents: distribution coefficients against a standard water/3-buten-1,2-diol/epoxybutene solution
Format: physicochemical
Conditions: 1 part solvent : 1 part standard solution (35% water/65% diol with approx. 10 wt% epoxybutene), room temperature, GC analysis; ONE PHASE = no phase separation
Procedure: This example compares the extraction affinity of various water-immiscible solvents for epoxybutene in the presence of aqueous absorbent mixtures, as occurs in the extraction zone of both embodiments of this invention. A standard mixture of 35% water and 65% 3-buten-1,2-diol (diol) was prepared. […] For each candidate extractant solvent specified in Table 1, one part by weight water-immiscible solvent was added to one part standard water-diol-epoxybutene solution in a separatory funnel. The mixture was vigorously shaken, allowed to settle, then separated into two liquid phases at room temperature. The aqueous and organic layers from the decantation were analyzed by gas chromatography to determine the composition of each layer. From these compositions, distribution coefficients were calculated for epoxybutene, water, diol, and the candidate extractant as follows: [formula]

n-Butanol
Distribution Coefficients Epoxy-Butene: ONE PHASE
